For experiment [1], the system named is Bone marrow-derived mesenchymal stem cells (MSCs). Nature of the experiment: Differentiation of bone marrow-derived MSCs in HyStem-C beads, FABP4 expression. The conditions noted are these: 14 days, 50 ng/mL BMP2, or 10 ng/mL BMP4, or 100 ng/mL BMP7. The class given is cell-based. Here is the method: The cell lines E72, E75, and E163, or cells with a similar pattern of gene expression, are capable of differentiating into C19orf80-expressing adipocytes when exposed to adipogenic differentiation conditions such as differentiation in HyStem-C (BioTime, Inc. Alameda, Calif.) as described with chondrogenic medium supplemented with 10 ng/mL BMP4 for 14-21 days, but without TGFβ3. […] Similarly, the lines E72, E75, E163, as well as clonal hES-derived embryonic progenitors corresponding to other anatomic locations, also differentiated into FABP4-expressing cells. However, only MSCs, E72, E75, and E163 cells induced C19orf80/betatrophin expression upon differentiation.
HyStem-C (BioTime, Inc. Alameda, Calif.) is a matrix composed of thiol-modified gelatin and thiolated hyaluronan crosslinked in vivo or in vitro with (polyethylene glycol diacrylate (PEGDA). We observed that clonal human embryonic progenitor cell lines such as those described in the present invention, could be efficiently differentiated in high-density cultures of said crosslinked collagen and hyaluronate in the following manner. HyStem-C® (BioTime, CA, USA) is reconstituted following the manufacturer's instructions. Briefly, the HyStem component (10 mg of thiol-modified hyaluronan) is dissolved in 1.0 ml of degassed deionized water for approximately 20 min to prepare a 1% w/v solution. […]

The next experiment deals with cell line E72. Briefly: Differentiation of cell line E72 in HyStem, gene expression. Format: cell-based, human. As to conditions: E72 passage 11; 21 days in HyStem with 10 ng/mL TGFβ3 together with BMP4 (10 ng/mL) or BMP2 (50 ng/mL). Here is the method:
(§1) HyStem-C (BioTime, Inc. Alameda, Calif.) (BioTime, Alameda, Calif., USA) was reconstituted following the manufacturer's instructions. Briefly, the HyStem component (thiol modified hyaluronan, 10 mg) was dissolved in 1.0 ml degassed deionized water for about 20 minutes to prepare a 1% w/v solution. The Gelin-S component (thiol modified gelatin, 10 mg) was dissolved in 1 ml degassed deionized water to prepare a 1% w/v solution, and PEGDA (PEG diacrylate, 10 mg) was dissolved in 0.5 ml degassed deionized water to prepare a 2% w/v solution. HyStem (1 ml, 1% w/v) was mixed with Gelin-S (1 ml, 1% w/v) immediately before use. Pelleted cells were resuspended in recently prepared HyStem:Gelin-S (1:1 v/v) mix described above. Upon the addition of crosslinker PEGDA, the cell suspension, at a final concentration of 2.0×10^7 cells/ml, was aliquoted at 25 μl aliquot four to five times into each well of 6 well plates (Corning 3516) after partial gelation to form attached beads. Following complete gelation (20 minutes), chondrogenic medium was added to each well (i.e about 4 ml/each well of a 6 well plate). […]

For the next experiment, the system named is cell line E75. Briefly: Differentiation of cell line E75 in HyStem, gene expression. The class given is cell-based, human. The conditions noted are these: E75 passage 11; 21 days in HyStem with 10 ng/mL TGFβ3 together with BMP4 (10 ng/mL) or BMP2 (50 ng/mL). Here is the method:
as §1

Consider one molecule from patent publication US20230093399A1, “METHODS FOR GENERATING PLURIPOTENT STEM CELL-DERIVED BROWN FAT CELLS” (AgeX Therapeutics, Inc., priority 2013, published 2023).

B1: BMP2: Bone Morphogenetic Protein 2, TGF-beta superfamily member (protein, UniProt P12643 283-396, looked up)
Bone morphogenetic protein 2: QAKHKQRKRLKSSCKRHPLYVDFSDVGWNDWIVAPPGYHAFYCHGECPFPLADHLNSTNHAIVQTLVNSVNSKIPKACCVPTELSAISMLYLDENEKVVLKNYQDMVVEGCGCR
In the case of B1, the “differentiation into adipocytes as evidenced by expression of FABP4” value in experiment [1] is on record as “caused the differentiation of the cells into adipocytes”. In addition, the “markers of endochondral ossification including COL2A1, ALPL, IBSP, and osteopontin (SPP1)” value with cell line E72 and in the experiment with cell line E75 was “relatively high levels” throughout.
